Laboratory results reported in PubChem BioAssay (EPA / NIEHS).
This is a selection; strong and weak results do not stand in their true shares. Activity calls are given as the source filed them. The calls were made as follows: active = hit-call score of the fitted dose curve at least 0.9, where 1 is the maximum; inactive = score below 0.9.

Protein sequences, listed by entry. Tags and fused reporters are not part of them.
UniProt P26367, whole entry: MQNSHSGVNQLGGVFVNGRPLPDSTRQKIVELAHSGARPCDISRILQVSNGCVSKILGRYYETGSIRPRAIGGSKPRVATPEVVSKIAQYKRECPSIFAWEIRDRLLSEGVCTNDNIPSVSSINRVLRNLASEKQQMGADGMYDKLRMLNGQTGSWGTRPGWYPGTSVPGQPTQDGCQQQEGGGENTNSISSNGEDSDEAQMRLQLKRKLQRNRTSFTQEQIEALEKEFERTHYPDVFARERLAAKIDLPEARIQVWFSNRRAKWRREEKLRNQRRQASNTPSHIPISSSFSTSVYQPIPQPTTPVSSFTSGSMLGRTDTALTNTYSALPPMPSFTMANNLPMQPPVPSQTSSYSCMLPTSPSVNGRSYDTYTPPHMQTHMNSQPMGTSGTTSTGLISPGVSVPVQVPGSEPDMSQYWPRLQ

These molecules were tested against Paired box protein Pax-6 (Homo sapiens) (UniProt P26367) (assay: ATG_Pax6_CIS: Attagene CIS-FACTORIAL HepG2 Assay for human Paired Box 6 (PAX6) (AID 2282956)). Conditions: HepG2 CIS-FACTORIAL PAX6 reporter transcription, RNA readout; actives raise or lower the signal.
Description: ATG_CIS is a cell-based, multiplexed-readout assay that uses HepG2, a human liver cell line, with measurements taken at 24 hours after chemical dosing in a 24-well plate.ATG_Pax6_CIS is one of 52 assay component(s) measured or calculated from the ATG_CIS assay. It is designed to make measurements of mRNA induction, a form of inducible reporter, as detected with fluorescence intensity signals by Reverse transcription polymerase chain reaction (RT-PCR) and Capillary electrophoresis technology.Data from the assay component ATG_Pax6_CIS was analyzed into 1 assay endpoint. This assay endpoint, ATG_Pax6_CIS, was analyzed with bidirectional fitting relative to DMSO as the negative control and baseline of activity. Using a type of inducible reporter, measures of mRNA for gain or loss-of-signal activity can be used to understand the reporter gene at the transcription factor-level as they relate to the gene PAX6. Furthermore, this assay endpoint can be referred to as a primary readout, because this assay has produced multiple assay endpoints where this one serves a reporter gene function. To generalize the intended target to other relatable targets, this assay endpoint is annotated to the dna binding intended target family, where the subfamily is paired box protein.
Human liver HepG2 cells are transiently transfected with multiple reporter transcription units (MRTUs) in 6-well plates using FuGene 6 reagent (Roche; 3 ml FuGene/1 mg DNA). The MRTU constructs are regulated by a cis-regulating element (promoter). […] A major difference between the CIS and TRANS system is that in CIS activities of endogenous TFs are measured, whereas the TRANS assay evaluates changes in activities of exogenous, chimeric NR-Gal4 proteins. […] At the end of 24 hour incubation, total RNA was isolated using TriZol reagent (Invitrogen). The isolated RNA is then reverse-transcribed using oligo(dT) primer and Mo-MLV reverse transcriptase (Invitrogen) with DNAse I (Ambion) treatment for 30 min. The one-tenth of the produced cDNA was amplified by PCR using Taq DNA polymerase (Invitrogen) and two reporter sequence-specific primers. The PCR products were fluorescently labeled by primer extension with 6-arboxyfluorescein (6-FAM) 5'-labeled reporter sequence-specific primer (2 min at 95 C, 20 s at 68 C and 10 min at 72 C) and these products were digested with 5U of HpaI (New England Biolabs) for 2h at 37 C. The fragments were purified using Qiaquick PCR columns (Qiagen), analyzed on an ABI 3130xL genetic analyzer (Applied Biosystems) with peak positions identified by using a set of X-rhodamine (ROX)-labeled MapMarker1000 molecular weight standards (BioVentures). The raw capillary electrophoresis data was processed using Attagraph software (Attagene).

With CC(C)N(CCO)C(C)C as the molecule, how does the outcome read?
Its outcome is “inactive”.

CN(C)CCCl was tested. Which outcome did it give?
The outcome was “inactive”.

O=[N+]([O-])OCC(CO[N+](=O)[O-])(CO[N+](=O)[O-])CO[N+](=O)[O-] was tested. Which outcome did it give?
The outcome was “inactive”.

Which outcome does the source give for COP(C)(=O)OC here?
The outcome was “inactive”.

How did the outcome turn out when N#CBr was run?
The outcome was “inactive”.

For Cc1c([N+](=O)[O-])cccc1[N+](=O)[O-], which outcome is on record?
Its outcome is “inactive”.

How did the outcome turn out when O=[N+]([O-])c1cccc([N+](=O)[O-])c1 was run?
The outcome was “inactive”.

For Cc1ccc([N+](=O)[O-])cc1[N+](=O)[O-], which outcome is on record?
Its outcome is “inactive”.

How did the AC50 turn out when Cc1cccc([N+](=O)[O-])c1[N+](=O)[O-] was run?
Its AC50 is active: 111 µM.

How did the outcome turn out when CC(C)OP(C)(=O)OC(C)C was run?
Its outcome is “inactive”.

Cc1ccc([N+](=O)[O-])c([N+](=O)[O-])c1 was tested. Which outcome did it give?
The outcome was “inactive”.

COc1ccc([N+](=O)[O-])cc1[N+](=O)[O-] was tested. Which outcome did it give?
The outcome was “inactive”.
